This experiment concerns L1210 ( R81). Description: Inhibitory concentration against growth of L1210/R81 cell line. In kind it is functional, cell-based. The note with it: Mus musculus.

pIC50: −log10 of the molar value.

The molecule `Nc1nc(N)c2nc(CNc3ccc(C(=O)NC(CCCNC(=O)c4ccccc4C(=O)O)C(=O)O)cc3)cnc2n1` (stereo unspecified) showed a pIC50 of 4.28.

Broadly, the pIC50 is the negative decadic logarithm of the IC50, by convention in mol/L. Lower therefore signals a large IC50.

The values are drawn from ChEMBL document CHEMBL1124148 (J Med Chem, 1988).
